Test results: publication PMC5078011, “The oleocanthal-based homovanillyl sinapate as a novel c-Met inhibitor” (Oncotarget, 2016)

By UniProt entry, the sequences of proteins in these tests, tags left out.
UniProt P00519, whole entry: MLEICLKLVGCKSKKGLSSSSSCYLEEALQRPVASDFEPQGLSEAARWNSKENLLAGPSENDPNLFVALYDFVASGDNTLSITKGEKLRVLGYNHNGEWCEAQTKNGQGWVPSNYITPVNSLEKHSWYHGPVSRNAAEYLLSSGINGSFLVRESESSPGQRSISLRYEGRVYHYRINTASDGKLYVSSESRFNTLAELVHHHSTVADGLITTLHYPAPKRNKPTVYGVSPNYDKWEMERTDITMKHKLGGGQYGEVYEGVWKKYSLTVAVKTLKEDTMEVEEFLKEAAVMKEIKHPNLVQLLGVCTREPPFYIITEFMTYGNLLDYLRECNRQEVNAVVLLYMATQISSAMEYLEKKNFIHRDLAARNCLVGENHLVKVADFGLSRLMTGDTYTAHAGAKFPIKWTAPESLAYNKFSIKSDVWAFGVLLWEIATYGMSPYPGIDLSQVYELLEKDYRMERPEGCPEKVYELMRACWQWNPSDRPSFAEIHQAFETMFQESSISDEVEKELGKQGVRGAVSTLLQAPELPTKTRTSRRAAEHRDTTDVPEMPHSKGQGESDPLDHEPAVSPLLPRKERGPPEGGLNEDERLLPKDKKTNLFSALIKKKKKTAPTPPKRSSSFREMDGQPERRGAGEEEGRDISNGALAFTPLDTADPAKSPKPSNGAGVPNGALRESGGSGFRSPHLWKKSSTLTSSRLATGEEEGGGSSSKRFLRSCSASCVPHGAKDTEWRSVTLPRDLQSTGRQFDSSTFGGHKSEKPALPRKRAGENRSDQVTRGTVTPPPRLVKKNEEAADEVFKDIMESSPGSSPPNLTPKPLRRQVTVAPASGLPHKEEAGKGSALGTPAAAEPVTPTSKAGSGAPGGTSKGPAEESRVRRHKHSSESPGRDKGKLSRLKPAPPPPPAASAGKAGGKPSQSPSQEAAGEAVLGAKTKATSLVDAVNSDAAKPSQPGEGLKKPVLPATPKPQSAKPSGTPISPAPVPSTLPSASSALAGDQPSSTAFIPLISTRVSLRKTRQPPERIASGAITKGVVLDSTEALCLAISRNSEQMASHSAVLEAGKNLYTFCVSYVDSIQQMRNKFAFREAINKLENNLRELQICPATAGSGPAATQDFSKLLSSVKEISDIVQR

Molecular target: ABL1 (Homo sapiens, UniProt P00519)

Mean inhibition at 10 μM (%): 69
SMILES: COc1cc(CCOC(=O)/C=C/c2cc(OC)c(O)c(OC)c2)ccc1O [HVS]
